Measured affinities in a library of Ab-14 light chain variants

Data: MIT Lincoln Laboratory AlphaSeq set, Engelhart et al. 2022, doi:10.1038/s41597-022-01779-4, as distributed in FLAb.

Target: peptide PDVDLGDISGINAS, taken from heptad repeat 2 (HR2) of SARS-CoV-2 spike.

Each scFv is VH, the linker GGGGSGGGGSGGGGS, VL, as in the parent Ab-14, and differs from it in the CDRs of the light chain only.
VH: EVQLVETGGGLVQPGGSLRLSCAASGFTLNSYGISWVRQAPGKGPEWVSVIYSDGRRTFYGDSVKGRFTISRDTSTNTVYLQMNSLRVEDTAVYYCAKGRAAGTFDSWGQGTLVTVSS
VL: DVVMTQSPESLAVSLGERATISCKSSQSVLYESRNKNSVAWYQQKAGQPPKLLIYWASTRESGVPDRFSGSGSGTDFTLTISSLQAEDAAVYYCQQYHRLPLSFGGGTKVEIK

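The parent was found by panning a naive human phage display library on the peptide. Library AAYL50 holds single substitutions and randomly drawn double and triple substitutions in the CDRs. The scFvs were displayed on barcoded MATa yeast, the peptide on MATalpha yeast. Binding brings cells together so that they mate, and sequencing counts the barcode pairs among the diploids. Read counts were normalised to the haploid input and turned into Kd by a linear fit to BCL2-family pairs of known affinity, for each replicate. The assay was run in three technical replicates.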

Variants are written as CDR1, CDR2 and CDR3 of the light chain (limits as in the source). Parent: KSSQSVLYESRNKNSVA, WASTRES, QQYHRLPLS.
Scale: log10 of Kd in nM, estimated from mating counts; low values are strong binders.
Where no diploid with the target was found in that replicate, the entry reads "n.d.": below detection, most likely a poor binder, though not proof of it.
Three control strains display no target. For library AAYL50, 18% of the pairings with them gave a signal, with a median of 4.19 and one signal in twenty below 2.99, so weak values seen in few replicates may be background. Also given: how often the same scFv was detected with the empty control strains, with their mean in brackets.

CDR-L1,CDR-L2,CDR-L3,"log10 Kd, replicates",empty controls
KSSQSVLLESRNKNSHA,WAQTRES,QQYHRLPLS,n.d. / n.d. / n.d.,3/9 (4.18)
KSSQSVLYESRNKNSVA,WESTRES,QQYHRQPES,n.d. / n.d. / n.d.,1/9 (2.04)
KSSQSVYYESRNKNIVA,WAMTRES,QQYHRLPLS,n.d. / n.d. / n.d.,3/9 (3.79)
KSSQSVRYESRNKNSVA,WASQRES,QQYHRPPLS,n.d. / n.d. / n.d.,0/9
KSSQSVLYESRNKNSVA,WATTRES,QQYKRLPLN,1.06 / 1.29 / 1.36,4/9 (5.03)
KSIQSDLYESRNKASVA,WASTRES,QQYHRLPLS,1.92 / 2.25 / 1.97,1/9 (3.55)
KSSQSVLIESRNKNSVA,WASTHES,QQYHRDPLS,2.47 / 2.34 / 3.41,1/9 (2.69)
ESSQSVLYESENKNSVA,WASTRES,QQYHILPLS,2.53 / 2.42 / 2.65,2/9 (3.91)
KSSQSCGYESRNKNSVA,WASTRES,QQYHRLPLP,n.d. / n.d. / n.d.,1/9 (5.53)
KSSQSVLYESRNKNSPC,WASTRES,QQRHRLPLS,n.d. / n.d. / n.d.,0/9
KSSQSVLYESRLKISVA,WASTRES,QQYHRLPLS,n.d. / n.d. / n.d.,0/9
KSSQSYLYESRNKNMVA,WASTRGS,QQYHRLPLS,n.d. / n.d. / n.d.,1/9 (3.45)
KSSQSVLYESRNKGDVA,WASTRES,NQYHRLPLS,n.d. / n.d. / n.d.,0/9
KSSQSVLYESDNTNSCA,WASTRES,QQYHRLPLS,2.27 / 2.13 / 3.21,6/9 (4.46)
KSSQSVLYESRNNNKPA,WASTRES,QQYHRLPLS,n.d. / n.d. / 3.66,1/9 (3.44)
KSSQSVLMESRNKNSVA,WASTRES,QQYHRLMLK,n.d. / n.d. / n.d.,3/9 (4.27)
KSSQSVLYESRNKNSVA,WASTREA,QQYHRLPFS,0.49 / 0.66 / 0.85,0/9
KSMQSVLYESRDANSVA,WASTRES,QQYHRLPLS,2.09 / 1.34 / 2.28,0/9
KSSQSVLYESRNKNLVA,WASTRES,QQYHRLPLS,n.d. / n.d. / n.d.,1/9 (2.27)
KSSQSVLYESRNKNSVA,WASTRQS,WQYFRLPLS,2.06 / 1.88 / 2.49,3/9 (3.37)
KSSQSVLYEKRNKNSVA,WASTRES,DQYHRLPLS,2.69 / 2.53 / 2.83,2/9 (3.75)
KSPQSVLYESRNKNSVA,WASTRES,AQYHRLPLH,2.66 / 2.81 / 2.94,2/9 (4.67)
KSSQSVLYESRNKNSVA,YASTGEI,QQYHRLPLS,n.d. / 4.17 / n.d.,2/9 (5.66)
KSSQSVLYESIWKNSVW,WASTRES,QQYHRLPLS,n.d. / n.d. / 5.89,3/9 (4.44)
KSNQSLLYESRNKNSVA,EASTRES,QQYHRLPLS,-0.18 / 0.14 / -0.05,3/9 (5.49)
KSSQSRLYESRNMNSGA,WASTRES,QQYHRLPLS,n.d. / n.d. / n.d.,1/9 (4.11)
KSSQSVLYESRSKNSVA,WASHRES,QQYHRLWLS,1.22 / 1.32 / 1.52,0/9
KSSQSELYESRNKNSVA,WASTPES,QQYHRLPAS,3.82 / n.d. / n.d.,0/9
KSKQSVLYESRNKNSVA,WASTRES,QMNHRLPLS,5.69 / n.d. / n.d.,1/9 (4.00)
KCSQSVLYESPNKNSVA,WASTRES,QRYHRLPLS,n.d. / n.d. / n.d.,0/9
KSSQSVLYESRNKNSVA,WADTRNS,QQYHREPLS,2.55 / 2.75 / 2.36,3/9 (4.64)
KSSQHVLVESRNKNSVA,WASTRES,QQYHRLPLS,2.99 / 1.84 / 2.23,0/9
KKSQSVLYEGRNKNSVA,WASTRES,QDYHRLPLS,0.73 / 1.03 / 1.38,1/9 (3.50)
KSSQSVRYESRNKNSVA,WASTRES,QQVHRLPHS,n.d. / n.d. / n.d.,0/9
KSSQSVLYESRNKNSVA,WASTRES,QQYYRLPLS,2.06 / 2.25 / 2.44,2/9 (3.76)
KSSWSVLYESRNKNSVA,WASTVES,QQYHRLPLS,3.51 / 3.13 / 3.19,2/9 (4.29)
KSSQSDLNESRNKNSVA,WASTRES,QQYHRLPLW,0.86 / 0.84 / 1.01,0/9
KSSQSVLYESRNKNSVA,WASTRES,QWYHKSPLS,n.d. / 3.21 / n.d.,3/9 (3.00)
VSSQSVLYESRNKNSVA,WASTREM,QQYVRLPLS,2.04 / 2.19 / 2.48,2/9 (3.68)
KSSQSVLYEHPNKNSVA,WASTRES,QQYVRLPLS,0.35 / 0.91 / 0.54,3/9 (5.34)
KSSQSGLYESRNKNSVA,WASTRES,MQYHRLPTS,0.56 / 0.86 / 0.73,0/9
KSIQSVLYESRNKNSVA,WASTRES,WQYHRLPLL,n.d. / n.d. / n.d.,0/9
KSEQSGLYESRNKNSMA,WASTRES,QQYHRLPLS,2.89 / 2.79 / 3.28,0/9
KSSQSVLYESRNKNSVA,WASTRES,QLYHILPVS,n.d. / n.d. / n.d.,1/9 (4.73)
KSSQSVLYESRTKNSVA,WASTREF,QQYHRLPLS,0.63 / 1.46 / 1.38,0/9
KSSQSVPYESRNKNSVA,WASTYES,MQYHRLPLS,n.d. / 4.71 / n.d.,3/9 (3.64)

The opening 2 entries, copied out:

CDR-L1,CDR-L2,CDR-L3,"log10 Kd, replicates",empty controls
KSSQSVLLESRNKNSHA,WAQTRES,QQYHRLPLS,n.d. / n.d. / n.d.,3/9 (4.18)
KSSQSVLYESRNKNSVA,WESTRES,QQYHRQPES,n.d. / n.d. / n.d.,1/9 (2.04)